Measured values published in patent publication US6331565A, “Dicaffeoylquinic acid for treating hepatitis B and the diseases associated with retrovirus, and the new caffeoylquinic acid derivatives” (Institute of Radiation Medicine Academy of Military Medical …, priority 1996, dated 2001).

Test system: HIV-1
Experiment: Viable cells of HIV-infected MT4 cells (MTT)
Type: cell-based, HIV-1 in human MT4 cells
Experimental: A human T-cell leukemia cell line. MT4 cells, was used in this study. It was maintained in RPMI-1640 medium supplemented with 10% FCS. 100 U/ml of penicillin, and 100 μg/ml of streptomycin at 37° C. in a humidified atmosphere of 5% CO2. Cell cultures were split into fresh medium every 4 days.
HIV-1 virus was propagated in MT4 cells. The cell-free supernatants of HIV-1 infected MT4 cell culture were used as virus stocks and frozen at -80° C. until used. The 50% tissue culture infected dose (TCID50) of the cell-free virus stock was determined by end-point titration with MT4 cells in 96-well microdilution plates.
After 4 h, 100 μl of solvent (10% Triton X-100 and 0.4% HCl isopropanol)was added to cultures to solubilizes formazan. After an overnight incubation, the absorbency of each well was measured using a microplate reader (Bio-Rad, model 450) at 560 nm.
MT4 cells in culture were counted by trypan blue exclusion method. The MT4 cells suspended in a small volume of RPMI-1640 medium without FCS and infected with HIV-1 at 200 TCID50 viruses per 10^6 cells. The mixture of MT4 cells and virus was subsequently incubated at 37° C. in a humidified atmosphere of 5% CO2 for 1 hr to allow virus to adsorbed to cells. […]
After 7-day incubation the viable cells was evaluated by MTT method as described above.

Compound: O=C(/C=C/c1ccc(O)c(O)c1)OC1CC(OC(=O)/C=C/c2ccc(O)c(O)c2)(C(=O)O)CC(O)C1O (stereo not shown) [Compound A, 1,5-di-O-caffeoylquinic acid]
- amounts of viable cells: increased the amounts of viable cells dose-dependently; also recorded: increase the amounts of viable cells

Entries after “also recorded” stand apart in the source; their conditions may differ.
